Test results as given in patent US20240425441A9, “MODULATORS OF LIPOXYGENASE AND CYCLOOXYGENASE ENZYME ACTIVITY” (Université de Moncton, priority 2016, published 2024).

Sequences of proteins named here, by UniProt entry; tags and fusion partners are left off. Residues count along the entry.
UniProt P35354, 18-604: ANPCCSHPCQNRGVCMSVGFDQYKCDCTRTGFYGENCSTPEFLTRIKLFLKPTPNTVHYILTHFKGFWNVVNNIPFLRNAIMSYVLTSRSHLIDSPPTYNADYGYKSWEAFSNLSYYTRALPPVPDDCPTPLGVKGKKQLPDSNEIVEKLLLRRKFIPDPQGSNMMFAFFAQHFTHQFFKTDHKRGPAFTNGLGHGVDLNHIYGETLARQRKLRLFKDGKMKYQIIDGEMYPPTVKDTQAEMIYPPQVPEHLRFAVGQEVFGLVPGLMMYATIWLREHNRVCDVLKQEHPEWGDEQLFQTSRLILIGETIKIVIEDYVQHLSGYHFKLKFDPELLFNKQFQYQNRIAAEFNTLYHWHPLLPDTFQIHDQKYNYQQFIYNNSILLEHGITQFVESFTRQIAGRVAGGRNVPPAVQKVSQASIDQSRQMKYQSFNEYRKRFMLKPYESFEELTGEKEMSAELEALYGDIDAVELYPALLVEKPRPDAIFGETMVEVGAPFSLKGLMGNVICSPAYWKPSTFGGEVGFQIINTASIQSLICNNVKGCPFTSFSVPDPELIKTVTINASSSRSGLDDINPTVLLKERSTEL

Target: COX-2 (Homo sapiens (Human), UniProt P35354)
Experiment: COX-2 activity, products from LPS-primed human neutrophils
Format: cell-based
Settings: 100% no inhibition, 0% complete inhibition, read-out: Avg % of control

- remaining activity at 1 µM: 52.4%
Compound: O=C(/C=C/c1ccc(O)c(O)c1)OCCc1ccccc1 [CAPE, caffeic acid phenethyl ester, reference compound]
